# Ab-91 heavy chain CDR variants: yeast mating affinities

Binding partner: SARS-CoV-2 spike HR2 peptide, sequence PDVDLGDISGINAS.

The variants keep the light chain, the linker and the frameworks of Ab-91 (scFv order VL, three GGGGS repeats, VH).
VL: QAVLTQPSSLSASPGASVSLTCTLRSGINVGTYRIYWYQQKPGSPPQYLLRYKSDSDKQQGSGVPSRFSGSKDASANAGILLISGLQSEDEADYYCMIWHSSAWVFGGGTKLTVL
VH: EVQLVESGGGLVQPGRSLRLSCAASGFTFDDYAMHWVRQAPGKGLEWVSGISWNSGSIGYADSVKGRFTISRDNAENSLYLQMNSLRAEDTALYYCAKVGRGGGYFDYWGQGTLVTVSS

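The parent was found by panning a naive human phage display library on the peptide. AAYL51 was designed without a model: most single CDR substitutions and a random sample of double and triple ones. The scFvs were displayed on barcoded MATa yeast, the peptide on MATalpha yeast. Binding brings cells together so that they mate, and sequencing counts the barcode pairs among the diploids. Read counts were normalised to the haploid input and turned into Kd by a linear fit to BCL2-family pairs of known affinity, for each replicate. Mating was done three times.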

The parent's heavy chain CDRs are GFTFDDYAMH, GISWNSGSIGYADSVK, VGRGGGYFDY; each variant's own CDRs replace them letter for letter. The read-out is the apparent dissociation constant on a log10 scale (nM): the lower, the stronger. Where no diploid with the target was found in that replicate, the entry reads "nd": below detection, most likely a poor binder, though not proof of it. Nonspecific signal, from three strains lacking the peptide, appeared in 21% of pairings of library AAYL51, centred on 4.54 (5% of these signals below 3.26); values are not corrected for it. The control count says in how many pairings with the empty strains this scFv gave a signal, with their mean in brackets.

CDR-H1,CDR-H2,CDR-H3,"replicates, log10 nM",empty controls
GFTFDDYAKH,GISWNSGSIGYRDAVK,VGRGGGYFDY,3.35 / 3.36 / 3.82,7 of 9 (5.12)
GFFFIDYAMH,GISWNSGSIGYADSEK,VGRGGGYFDY,nd / 5.25 / nd,3 of 9 (4.53)
GFTFDDYAMH,GISWNSGSIGYADSVK,VGGGGGYIDR,4.79 / 4.90 / nd,0 of 9
GFTFDDYAMH,GISWNSGDIGYADSVK,NGRGPGYFDY,2.70 / 2.86 / 2.50,5 of 9 (4.74)
GFQFDDYAMH,GISWNSGSIGYHDSVK,VGRGGGTFDY,nd / nd / nd,1 of 9 (3.93)
GFTFDDYAKH,GISWNSGSIGYADWVK,VGRKGGYFDY,4.93 / nd / nd,0 of 9
GFTFDDYAFH,GISWNSGSIQYADSVK,VGRGGGYFDY,nd / nd / nd,0 of 9
GRYFDDYAMH,GISWKSGSIGYADSVK,VGRGGGYFDY,nd / nd / nd,0 of 9
GFTFDDYAMH,GISWESTSIGYADSVK,VGRGGGYFDY,2.29 / 2.24 / 2.06,5 of 9 (4.30)
GFWFDDYAMH,GISWNMGSIGYATSVK,VGRGGGYFDY,nd / nd / nd,0 of 9
GFTFDDYKMH,GIGWCSGSIGYADSVK,VGRGGGYFDY,nd / nd / nd,2 of 9 (4.57)
GFTYDDYAMH,EISWASGSIGYADSVK,VGRGGGYFDY,nd / nd / nd,2 of 9 (3.91)
GFTFDDYAHH,GISWNSGSIGKADSVK,VGRGGGYNDY,nd / nd / nd,3 of 9 (4.44)
GFTVDDYAMH,GISWISGSIMYADSVK,VGRGGGYFDY,5.65 / 4.89 / 4.45,3 of 9 (4.19)
YFTFDDYEMH,GISWNCGSIGYADSVK,VGRGGGYFDY,4.90 / 3.42 / 5.02,3 of 9 (4.24)
GFTFDDYAMH,GIPWNSGSIGYADSVK,DGRGQGYFDY,nd / nd / nd,0 of 9
GKTFYDYAMH,GIVWNSGSIGYADSVK,VGRGGGYFDY,nd / 3.71 / nd,1 of 9 (5.49)
GFTFDDYAMH,QISWHPGSIGYADSVK,VGRGGGYFDY,nd / nd / nd,0 of 9
GFTFDDYETH,GISWNSGSIGYAKSVK,VGRGGGYFDY,nd / nd / nd,0 of 9
GFCFDDYAMG,GISWNSGSCGYADSVK,VGRGGGYFDY,nd / 2.95 / nd,1 of 9 (3.51)
GFTFDDYAMH,GISRESGSIGYADSVK,DGRGGGYFDY,1.50 / 1.41 / 0.90,5 of 9 (4.90)
GFTIDDYAMH,KISWNSCSIGYADSVK,VGRGGGYFDY,nd / 3.95 / nd,6 of 9 (4.30)
GFTFDDYAMH,GICWNSGSIGYADLVK,VGRGGGQFDY,nd / 3.53 / nd,1 of 9 (2.49)
GFEFDDYAMH,GIPVNSGSIGYADSVK,VGRGGGYFDY,nd / nd / nd,0 of 9
PFTFDDYAMH,GISWNSGSIGYAMSPK,VGRGGGYFDY,nd / nd / nd,1 of 9 (2.73)
FFTFDDYAMH,GISWNSGSIGAADSVG,VGRGGGYFDY,nd / nd / 4.36,1 of 9 (4.42)
GFTFDDTYMH,GISWNSGSIGYADSVK,VGRGFGYFDY,nd / nd / nd,0 of 9
GFTFDDYAMC,GISAPSGSIGYADSVK,VGRGGGYFDY,4.68 / nd / nd,0 of 9
GFTFDDLAMH,KISWNSGSIGYADSVK,VGRGRGYFDY,3.56 / nd / 3.65,0 of 9
GFTFDDMAMH,GISWNRGSIGYADSPK,VGRGGGYFDY,nd / 3.79 / nd,2 of 9 (4.13)
GFTFDDYAMH,GITWNSGSIGYADSVK,VAVGGGYFDY,5.59 / 4.43 / nd,5 of 9 (4.60)
GQTFDDYAMH,GIQWVSGSIGYADSVK,VGRGGGYFDY,nd / 4.69 / nd,3 of 9 (4.56)
GFTFDKYAMH,GIKWNSGSIGYADSVA,VGRGGGYFDY,3.67 / nd / nd,1 of 9 (5.44)
GFTFDDYAMH,GISWNSGSIGYADSVK,VNKVGGYFDY,4.06 / nd / nd,0 of 9
GFTEDDYAMH,GISWNSESIGSADSVK,VGRGGGYFDY,nd / nd / nd,0 of 9
WFTFDDYAMH,GISYNSGSIGYADSVK,VGRGGGQFDY,4.49 / 6.52 / nd,4 of 9 (4.70)
GFTFDDYAMH,GISWNSGSIGYADSVE,FGRGEGYFDY,nd / nd / nd,2 of 9 (4.62)
GFVFDDYAMH,LISWRSGSIGYADSVK,VGRGGGYFDY,4.88 / 5.06 / nd,2 of 9 (4.90)
GFTWDDYAMH,GISWNSGSIGDADSVK,KGRGGGYFDY,nd / nd / 4.73,2 of 9 (3.62)
GFQFDDYAMH,GISWNLGSIGYMDSVK,VGRGGGYFDY,nd / nd / nd,1 of 9 (3.02)
GFTVDWYAMH,GISWNSGSIGYADSVS,VGRGGGYFDY,nd / nd / nd,2 of 9 (4.40)
GFTFDDYAMV,TISWNSGSIGYADSVK,VGRGGGYFDY,3.13 / nd / 3.44,0 of 9
GFTFDDYFMH,GISWNSVSIGYADSVK,VGREGGYFDY,nd / nd / nd,0 of 9
GFTFDNYAMH,GISWNAGSIGYAKSVK,VGRGGGYFDY,nd / nd / nd,3 of 9 (4.05)
GFTFDDYAMH,GIVWNSHSIGYADAVK,VGRGGGYFDY,nd / 4.81 / nd,2 of 9 (3.95)
GFTFDDIAMH,GISWNSGSIGYADSVK,VGRMGGYDDY,nd / nd / nd,0 of 9
GFTFDDYAMH,GISWNSISIGYADSVK,VGRGGGYFQY,1.16 / 1.23 / 0.93,2 of 9 (3.97)
GFTFDDYAMH,GISWNSGSIGYADSVK,VGSGILYFDY,nd / nd / nd,0 of 9
GFTFDIYAMH,GISWNSGSIGYAENVK,VGRGGGYFDY,2.03 / 2.07 / 1.69,4 of 9 (4.89)

The opening 8 entries, copied out:

CDR-H1	CDR-H2	CDR-H3	replicates, log10 nM	empty controls
GFTFDDYAKH	GISWNSGSIGYRDAVK	VGRGGGYFDY	3.35 / 3.36 / 3.82	7 of 9 (5.12)
GFFFIDYAMH	GISWNSGSIGYADSEK	VGRGGGYFDY	nd / 5.25 / nd	3 of 9 (4.53)
GFTFDDYAMH	GISWNSGSIGYADSVK	VGGGGGYIDR	4.79 / 4.90 / nd	0 of 9
GFTFDDYAMH	GISWNSGDIGYADSVK	NGRGPGYFDY	2.70 / 2.86 / 2.50	5 of 9 (4.74)
GFQFDDYAMH	GISWNSGSIGYHDSVK	VGRGGGTFDY	nd / nd / nd	1 of 9 (3.93)
GFTFDDYAKH	GISWNSGSIGYADWVK	VGRKGGYFDY	4.93 / nd / nd	0 of 9
GFTFDDYAFH	GISWNSGSIQYADSVK	VGRGGGYFDY	nd / nd / nd	0 of 9
GRYFDDYAMH	GISWKSGSIGYADSVK	VGRGGGYFDY	nd / nd / nd	0 of 9

Data: MIT Lincoln Laboratory AlphaSeq set, Engelhart et al. 2022, doi:10.1038/s41597-022-01779-4, as distributed in FLAb.